Test results taken from PMC12154458, “High-Throughput Screens of Repurposing Hub and DOS Chemical Libraries Reveal Compounds with Novel and Potent Inhibitory Activity Against the Essential Non-Neuronal Acetylcholinesterase of Schistosoma mansoni (SmTAChE)” (International Journal of Molecular Sciences, 2025).

By UniProt entry, the sequences of proteins in these tests, tags left out. Residues count along the entry.
UniProt P22303, 32-614 limits assumed: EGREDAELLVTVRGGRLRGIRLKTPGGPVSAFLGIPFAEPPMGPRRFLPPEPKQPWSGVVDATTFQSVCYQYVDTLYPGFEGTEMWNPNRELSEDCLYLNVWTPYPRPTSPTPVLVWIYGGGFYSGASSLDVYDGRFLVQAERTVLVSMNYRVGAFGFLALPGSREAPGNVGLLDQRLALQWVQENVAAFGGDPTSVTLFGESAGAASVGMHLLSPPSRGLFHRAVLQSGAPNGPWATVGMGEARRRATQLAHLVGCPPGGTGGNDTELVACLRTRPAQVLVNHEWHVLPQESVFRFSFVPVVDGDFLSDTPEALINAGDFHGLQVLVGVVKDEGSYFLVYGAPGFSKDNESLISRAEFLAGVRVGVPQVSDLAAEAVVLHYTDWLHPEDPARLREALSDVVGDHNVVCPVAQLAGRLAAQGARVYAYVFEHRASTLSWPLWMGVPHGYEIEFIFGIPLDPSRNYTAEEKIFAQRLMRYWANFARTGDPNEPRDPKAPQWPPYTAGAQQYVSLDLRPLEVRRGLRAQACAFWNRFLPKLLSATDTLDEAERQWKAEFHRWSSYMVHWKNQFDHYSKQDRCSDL

Molecular target: recombinant human acetylcholinesterase, rHsAChE (Homo sapiens, UniProt P22303)
Conditions: dose response analysis of Drug Repurposing Hub hits against rHsAChE; call rule not given here

SMILES	Data Mode (curve class), rHsAChE	IC50 (read-out: qAC50 (IC50), rHsAChE) [µM]
COc1cccc(-n2nc(C(=O)O)cc2-c2ccc(C3CCCCC3)c(Cl)c2)c1	decreasing	4.28
Cc1c(OCc2cccc(-c3ccc(C(=O)O)cc3)c2)cc2c(c1C)C(=O)C(C1CCCC1)C2 (stereo not shown)	decreasing	–
CCCn1c(=O)[nH]c2nc(-c3ccc(S(=O)(=O)N4CCN(c5ccc(Cl)cc5)CC4)cc3)[nH]c2c1=O	inactive	–
